In PubChem BioAssay AID886 (National Center for Advancing Translational Sciences (NCATS), 2007):
Only a part is listed here, and it is no random draw. Results filed as inconclusive are left out. A call without a number means that no potency is given here. Active and inactive are the calls of the source. Calls follow the shape of the dose curve; as a rule, active = well fitted inhibition curve with a large enough effect; inconclusive = small, poorly fitted or top-dose-only effect; inactive = no such curve, though single readings can be large or run the other way.

Protein sequences, listed by entry. Tags and fused reporters are not part of them. Lines headed by an entry give the natural chain unless they say otherwise; changes in a name come on top.
UniProt Q99714: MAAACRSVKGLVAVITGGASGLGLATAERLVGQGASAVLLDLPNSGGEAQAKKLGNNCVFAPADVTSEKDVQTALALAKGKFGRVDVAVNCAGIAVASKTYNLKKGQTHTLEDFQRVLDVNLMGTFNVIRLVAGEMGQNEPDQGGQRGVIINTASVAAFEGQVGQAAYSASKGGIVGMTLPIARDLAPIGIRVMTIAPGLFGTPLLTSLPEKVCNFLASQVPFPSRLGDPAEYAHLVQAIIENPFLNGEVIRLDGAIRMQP

What follows are compounds tested against 3-hydroxyacyl-CoA dehydrogenase type-2 (Homo sapiens) (UniProt Q99714) (assay: qHTS Assay for Inhibitors of HADH2 (Hydroxyacyl-Coenzyme A Dehydrogenase, Type II)). Settings: recombinant HADH2, NADH fluorescence, beta-hydroxybutyryl-CoA; series mostly up to 57.1 µM.
Also: nearly all actives have a fitted effect of over 60% in size.
Potency is read from the fitted curve at half-maximal effect.

Row | SMILES | activity change, negative = inhibition | Potency
1 | Cc1cc([N+](=O)[O-])cc([N+](=O)[O-])c1O | inactive | 
2 | [N-]=[N+]=Nc1ccc([As](=O)(O)O)cc1 | inactive: 0.985% [at 11.4 µM] | 
3 | O=C(OC1CN2CCC1CC2)c1cccc(Cl)c1 (stereo not given) | inactive | 
4 | c1nnnn1CCn1cnnn1 | inactive | 
5 | O=P(Nc1nccs1)(c1ccccc1)c1ccccc1 | inactive | 
6 | C[C@@H](O)COc1ccc([As](=O)(O)O)cc1N | inactive: 13.3% [at 11.4 µM] | 
7 | CN1CCC[C@H](OC(=O)C(c2ccccc2)c2ccccc2)C1 | inactive: 24.9% [at 11.4 µM] | 
8 | O=P1(Nc2nc3ccc(Cl)cc3s2)COc2ccccc2O1 (stereo not given) | inactive | 
9 | COC(=O)c1cc2c(s1)N=C(c1ccccc1)N(C)P2(=O)N1CCOCC1 (stereo not given) | inactive | 
10 | CN(C(=O)Cc1ccc(Cl)c(Cl)c1)[C@H]1CCCC[C@@H]1N1CCCC1 | inactive | 
11 | C(Cc1nn[nH]n1)c1nn[nH]n1 | inactive: -14.1% [at 11.4 µM] | 
12 | [N-]=[N+]=NCC(O)CN=[N+]=[N-] (stereo not given) | inactive: -6.15% [at 11.4 µM] | 
13 | O=[N+]([O-])c1ccc(C[As](=O)(O)O)cc1 | inactive: 1.28% [at 11.4 µM] | 
14 | NCC[C@@H](N)CSP(=O)(O)O | inactive: -10.5% [at 11.4 µM] | 
15 | Cc1c2non([O-])c-2c(C)[n+](=O)[n+]1[O-] |  | active: 1000 nM
16 | O=C(CO)Nc1ccc([As](=O)(O)O)cc1 | inactive: 5.43% [at 11.4 µM] | 
17 | CN(C(=O)Cc1ccccc1)[C@@H]1CC[C@@]2(CCCO2)C[C@H]1N1CCCC1 | inactive | 
18 | CN(N=O)C(=N)N[N+](=O)[O-] | inactive | 
19 | O=C(COc1ccccc1)OC1CN2CCC1CC2 (stereo not given) | inactive | 
20 | O=C(O)[C@@H](O)c1ccc([As](=O)(O)O)cc1 | inactive: 4.11% [at 11.4 µM] | 

Row | SMILES | activity change, negative = inhibition | Potency
21 | COP1(=S)c2c(C)nn(CCC#N)c2N=C(c2ccc(F)cc2)N1C (stereo not given) | inactive | 
22 | NC(=O)Nc1cc([As](=O)(O)O)cc(I)c1O | inactive: -22.8% [at 11.4 µM] | 
23 | O=C(OC1CN2CCC1CC2)C12CC3CC(CC(C3)C1)C2 (stereo not given) | inactive | 
24 | [N-]=[N+]=NCC(N)=O | inactive: 13.8% [at 11.4 µM] | 
25 | O=[As]c1ccc(S(=O)(=O)NCCO)cc1 (stereo not given) | inactive: -4.17% [at 11.4 µM] | 
26 | O=[As](O)(O)c1ccc([As](=O)(O)O)cc1 | inactive: -2.53% [at 11.4 µM] | 
27 | CCOP1(=S)c2c(C)nn(CCC#N)c2N=C(c2ccccc2F)N1C (stereo not given) | inactive | 
28 | O=P(Nc1nccs1)(c1ccccc1)c1nc2ccccc2s1 (stereo not given) |  | active: 2000 nM
29 | CCOP1(=S)c2c(C)nn(CCC#N)c2N=C(c2ccc(F)cc2)N1C (stereo not given) | inactive | 
30 | NC(=O)Nc1ccc([As](=O)(O)O)cc1 | inactive | 
31 | CN(C(=O)Cc1ccc(Cl)c(Cl)c1)[C@@H]1CC[C@@]2(CCCO2)C[C@H]1N1CCCC1 | inactive | 
32 | NS(=O)(=O)Cc1ccc([As](=O)(O)O)cc1 | inactive: 8.51% [at 11.4 µM] | 
33 | O=C(CC(=O)c1ccccc1)O[C@H]1CN2CCC1CC2 | inactive: 14.7% [at 11.4 µM] | 
34 | Clc1n[nH]nc1-c1nn[nH][15n]1 | inactive | 
35 | CN(CCCl)Cc1cc(Cl)c(NC2=NCCN2)c(Cl)c1 | inactive | 
36 | O=P1(Nc2ccccn2)COc2ccccc2OC1 | inactive | 
37 | CN(C(=O)Cc1ccc(Cl)c(Cl)c1)[C@@H]1CCCC[C@H]1N1CCCC1 | inactive | 
38 | Cc1nn(-c2ccccc2)c2c1P(=O)(N1CCOCC1)N(C)C(c1ccccc1)=N2 (stereo not given) | inactive | 
39 | O=P1(Nc2ccc(Br)cn2)COc2ccccc2OC1 | inactive | 
40 | O=P1(Nc2ncccn2)COc2ccccc2OC1 | inactive | 
